Source: PubChem BioAssay AID900 (National Center for Advancing Translational Sciences (NCATS), 2007)
The entries are a selection whose mix differs from that of the whole data set. Activity calls are given as the source filed them. Calls follow the shape of the dose curve; as a rule, active = well fitted inhibition curve with a large enough effect; inconclusive = small, poorly fitted or top-dose-only effect; inactive = flat fitted curve, though single readings scatter.

These compounds were tested against Caspase-1 (Homo sapiens) (UniProt P29466) (assay: qHTS Assay for Allosteric/Competitive Inhibitors of Caspase-1). Conditions: Caspase-1 enzyme, Ac-WEHD-AFC fluorogenic rate; at 57.5 µM (top of the series) unless noted.
Excerpt: NIH Molecular Libraries Screening Centers Network [MLSCN]
NIH Chemical Genomics Center [NCGC]
PI Name: Dr. James Wells,
Dr. Enrique Perez-Paya, Dr.Janice Williams, Dr. Dennis Wolan, a person
The caspases (Cysteine Aspartyl Protease) comprise a related family of 14 dimeric proteases that are critical mediators of apoptosis (programmed cell death) and inflammation. The caspases represent an important class of drug targets for stroke, ischemia, cancer and inflammatory diseases. […] One goal of this project was to identify compounds that act as allosteric inhibitors via stabilizing the procaspase form of the enzyme. Previous work in Well's laboratory has shown that such allosteric inhibitors can be identified and these act by binding at the dimer interface of enzyme (Hardy, Lam et al., 2004).
The biochemical assay was configured using purified caspase 1 at a high enzyme concentration to promote formation of the homodimers and thus facilitate the identification of allosteric inhibitors. The overall goal was to identify reversible inhibitors with better drug-like properties than the currently available set of aspartyl-containing peptidomimetics that covalently bind the active site. Caspase 1 was assayed using the profluorescent substrate Ac-WEHD-AFC. After initiation of the assay with substrate the plates were rapidly read using an automated robotic system (Kalypsys, Inc.) to maintain consistent timing. A kinetic mode of detection was used where the initial rate was collected (estimated final product formation was ~10%). Compounds were screened as a concentration-titration series that ranged from 57 uM to 0.7 nM. Below is the protocol used for caspase 1.
NCGC Assay Protocol Summary:
Caspase 1 was prepared in buffer (50 mM HEPES pH 7.5, 50 mM KCl, 200 mM NaCl, 10 mM DTT, 0.1% CHAPS) at a concentration of 66.6 nM and 3 uL was dispensed to all wells using black solid Kalypsys 1536-well plates. 20 nL of DMSO containing compounds was added using a pin-tool (Kalypsys Inc.) to columns 5-48. Then 20 nL of DMSO solution from a control plate was added to columns 1-4. Controls were: Column 1, 16 point titration with each concentration in duplicate (1:1 dilutions in DMSO; final starting concentration was 57 uM) of the caspase 1 inhibitor Ac-WEHD-CHO (Alexis Biochemicals); Column 2, a 16 point titration with each concentration in duplicate of the free AFC fluorophore prepared in DMSO (Alexis Biochemicals), final starting was 40 uM; Column 3 neutral (DMSO only) control; Column 4: DMSO alone, to serve as a negative control (no substrate was added). Then 1 uL of 20 uM the substrate Ac-WEHD-AFC (Alexis Biochemicals) prepared in the same buffer was dispensed to all wells except columns 2 and 4 and the plates were immediately transferred (< 1 min) to the Viewlux. The plates were then exposed using 405 nm excitation/520 nm emission filters for 4 sec and read at 20 sec intervals for 3 min. Final enzyme concentration was 50 nM and the final substrate concentration was 5 uM.
Concentration-response curves were fitted to the data calculated from slope of the linear regression of fluorescent intensity versus time (the rate). The concentration-effect curves were then classified based on curve quality (r2), response magnitude and degree of measured activity. […] Inconclusive compounds had appreciable concentration-dependent effects on both the measured rate and the interpolated basal fluorescence intensity at the start of the reaction but where the basal fluorescent intensity was marginal (e.g. < 10-fold). Inconclusive compounds also encompass highly fluorescent compounds (>100-fold increases in fluorescent intensities values relative to controls) where artificial concentration-dependent decreases in the rate occurred at high compound concentrations due to fluorescent interferences.
Keywords: Caspase 1, proteases, profluorescent, MLSMR, MLSCN, NIH Roadmap, qHTS, NCGC
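Also: plate controls were vehicle for no effect and no substrate for full effect.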

SMILES	activity change, negative = inhibition
N#CC1(Nc2ccccc2)CCN(CCc2ccccc2)CC1	inactive: -1.49%
NC1CCCCC1.NP(=O)(O)N(CCCl)CCCl	inactive: 1.09% [at 11.5 µM]
CCOP(=O)(Cl)Cl	inactive: -0.129%
O=C(OC1CN2CCC1CC2)C1c2ccccc2Oc2ccccc21 (stereo unspecified)	inactive: -5.86%
COc1ccc(NC2CCN(CCc3ccccc3)CC2)c(OC)c1	inactive: -2.04%
Fc1ccccc1NC1CCN(Cc2ccccc2)CC1	inactive: -1.62%
CCC(CO)(C(=O)OC1CN2CCC1CC2)c1ccccc1 (stereo unspecified)	inactive: -0.313%
O=C(O)C1(Nc2ccccc2)CCN(Cc2ccccc2)CC1	inactive: 2.02% [at 11.5 µM]
CCOc1ncccc1C(=O)NCC1(N2CCOCC2)CCCCC1	inactive: -0.0827%
N/C(=N\O)c1c(N)no[n+]1[O-]	inactive: -1.14%
ClCCOP(OCCCl)OCCCl	inactive: -4.61%
